Reference: patent US12624173B2, “Biodegradable polymeric compositions, methods of preparation and uses thereof” (B.G. NEGEV TECHNOLOGIES AND APPLICATIONS LTD., AT …, priority 2019, dated 2026)

Assay: Insulin distribution in brain and plasma 1 h after intranasal, iv and sc administration (ELISA)
Type: in vivo
Settings: rat, 36 μg/kg; for B/P ratio (insulin) / Brain Level (insulin) / Plasma level (insulin): 1 h after administration; for Brain Level (insulin) / Plasma level (insulin): ELISA
Protocol: Formulation INS-01 was used for intranasal administration. The administered dose used in each animal was 28 μg INS/kg body weight. The applied volume was approximately 15 μL/nostril. For intravenous (iv) and subcutaneous (sc) administrations, a solution of insulin for injection was prepared by dissolving human insulin in a sterile saline solution to obtain a concentration of 90 μg/ml. A volume of 0.1 ml of the solution (9 μg dose, i.e. 36 μg/kg) was injected into the tail vein of a sedated animal, or under the loose skin over the neck. […] After 60 minutes from administration, the animals were euthanized by CO2 aspiration.

[1] = IV injection of insulin solution
[2] = SC administration of insulin solution

## insulin
1 h after iv administration
  insulin brain level (mean): 1.87 ng/g
1 h after sc administration
  insulin brain level (mean): 3.52 ng/g
[1]
  B/P ratio (insulin): 0.41
  Brain Level (insulin): 1.87(±1.08) ng/g
  Plasma level (insulin): 4.56 (±1.60) ng/ml
[2]
  B/P ratio (insulin): 1.33
  Brain Level (insulin): 3.52(±0.40) ng/g
  Plasma level (insulin): 2.65 (±0.16) ng/ml
